The text below walks through data of ChEMBL document CHEMBL1641598, “Preparation, in vitro screening and molecular modelling of symmetrical 4-tert-butylpyridinium cholinesterase inhibitors--analogues of SAD-128” (2011).

Amino acid sequences for entries named in this document (tags omitted). A change or cut given only in a name is not applied to a line headed by its entry.
UniProt P06276, whole entry, looked up: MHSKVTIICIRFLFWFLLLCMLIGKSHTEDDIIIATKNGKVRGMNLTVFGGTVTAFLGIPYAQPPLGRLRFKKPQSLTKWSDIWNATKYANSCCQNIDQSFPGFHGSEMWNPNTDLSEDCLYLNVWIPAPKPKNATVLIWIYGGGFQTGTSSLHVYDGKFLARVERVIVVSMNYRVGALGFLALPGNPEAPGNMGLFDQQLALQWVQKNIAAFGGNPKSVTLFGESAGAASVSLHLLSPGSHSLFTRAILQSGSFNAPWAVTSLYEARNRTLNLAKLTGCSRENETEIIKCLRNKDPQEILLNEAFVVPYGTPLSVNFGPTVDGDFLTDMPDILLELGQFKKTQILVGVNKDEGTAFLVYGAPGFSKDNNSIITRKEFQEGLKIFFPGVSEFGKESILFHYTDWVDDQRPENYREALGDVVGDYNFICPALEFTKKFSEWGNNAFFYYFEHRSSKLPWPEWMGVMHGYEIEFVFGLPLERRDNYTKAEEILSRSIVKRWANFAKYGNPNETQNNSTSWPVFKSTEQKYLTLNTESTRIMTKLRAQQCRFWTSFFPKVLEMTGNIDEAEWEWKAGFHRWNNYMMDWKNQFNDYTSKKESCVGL
UniProt P22303: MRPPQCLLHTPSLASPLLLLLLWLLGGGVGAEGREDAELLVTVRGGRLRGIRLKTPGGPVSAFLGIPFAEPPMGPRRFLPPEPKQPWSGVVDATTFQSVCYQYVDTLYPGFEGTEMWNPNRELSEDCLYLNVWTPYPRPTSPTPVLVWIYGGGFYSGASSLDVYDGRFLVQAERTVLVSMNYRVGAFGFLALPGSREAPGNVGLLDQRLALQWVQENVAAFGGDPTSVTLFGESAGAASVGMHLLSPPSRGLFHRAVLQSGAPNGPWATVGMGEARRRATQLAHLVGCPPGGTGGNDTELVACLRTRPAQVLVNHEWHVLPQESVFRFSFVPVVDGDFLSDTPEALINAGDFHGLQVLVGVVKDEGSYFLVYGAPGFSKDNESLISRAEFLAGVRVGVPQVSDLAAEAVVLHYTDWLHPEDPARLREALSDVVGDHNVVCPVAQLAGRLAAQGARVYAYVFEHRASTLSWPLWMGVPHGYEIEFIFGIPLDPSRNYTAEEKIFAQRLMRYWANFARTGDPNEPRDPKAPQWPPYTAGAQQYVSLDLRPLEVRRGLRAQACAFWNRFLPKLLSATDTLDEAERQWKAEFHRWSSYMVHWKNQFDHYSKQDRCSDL

Each structure is given as a SMILES string. Active and inactive are the calls of the source. No cut-off for these calls is given here.

One test deals with Cholinesterase (Homo sapiens) (UniProt P06276). The test can be described thus: Inhibition of human recombinant BChE at 100 mM to 1 nM.
On to `C[n+]1ccccc1C=NO`, for which the inhibition entry is “inactive”.

For another test, the target named is Cholinesterases; ACHE & BCHE (Homo sapiens) (UniProt P06276+P22303). The test can be described thus: Selectivity index, ratio of IC50 for human recombinant BChE to IC50 for human recombinant AChE.
As to `CC(C)(C)c1cc[n+](CCC[n+]2ccc(C(C)(C)C)cc2)cc1`, the Ratio IC50 is 3.8. As to `CC(C)(C)c1cc[n+](CCCCCCC[n+]2ccc(C(C)(C)C)cc2)cc1`, the Ratio IC50 was 44. In the case of `CC(C)(C)c1cc[n+](CC[n+]2ccc(C(C)(C)C)cc2)cc1`, the Ratio IC50 is 1.2. Turning to `CC(C)(C)c1cc[n+](CCCCCCCCC[n+]2ccc(C(C)(C)C)cc2)cc1`, the Ratio IC50 came out at 4.1. On to `C=CC[N+](C)(C)c1ccc(CCC(=O)CCc2ccc([N+](C)(C)CC=C)cc2)cc1`, for which the Ratio IC50 turned out to be 11800. With `CC(C)(C)c1cc[n+](C[n+]2ccc(C(C)(C)C)cc2)cc1`, the Ratio IC50 stood at 1.7. Regarding `CC(C)(C)c1cc[n+](Cc2cccc(C[n+]3ccc(C(C)(C)C)cc3)c2)cc1`, the Ratio IC50 was found to be 2.7.

As to `CC(C)(C)c1cc[n+](Cc2ccccc2C[n+]2ccc(C(C)(C)C)cc2)cc1`, the Ratio IC50 worked out at 0.2. Take `CC(C)(C)c1cc[n+](C/C=C\C[n+]2ccc(C(C)(C)C)cc2)cc1`: the Ratio IC50 is 2.2. Turning to `CC(C)(C)c1cc[n+](COC[n+]2ccc(C(C)(C)C)cc2)cc1`, the Ratio IC50 stood at 6.2. `CC(C)(C)c1cc[n+](C/C=C/C[n+]2ccc(C(C)(C)C)cc2)cc1`: the Ratio IC50 was determined as 5.6. On to `CCN(CC)C(C)CN1c2ccccc2Sc2ccccc21` (stereo not drawn), for which the Ratio IC50 stood at 0.002. Regarding `CC(C)(C)c1cc[n+](CCCCCCCCCC[n+]2ccc(C(C)(C)C)cc2)cc1`, the Ratio IC50 amounted to 5. Regarding `CC(C)(C)c1cc[n+](CCOCC[n+]2ccc(C(C)(C)C)cc2)cc1`, the Ratio IC50 was 13. For the compound `CC(C)(C)c1cc[n+](CCCCCCCCCCC[n+]2ccc(C(C)(C)C)cc2)cc1`, the Ratio IC50 stood at 4.2.

Turning to `CC(C)(C)c1cc[n+](/C=C2\C=CC3=CC/C(=C\[n+]4ccc(C(C)(C)C)cc4)C=C3C2)cc1`, the Ratio IC50 is 5. `CC(C)(C)c1cc[n+](Cc2ccc(C[n+]3ccc(C(C)(C)C)cc3)cc2)cc1`: the Ratio IC50 came out at 4.3. Take `CC(C)(C)c1cc[n+](CCCCC[n+]2ccc(C(C)(C)C)cc2)cc1`: the Ratio IC50 was determined as 0.2. In the case of `CC(C)(C)c1cc[n+](CCCCCCCCCCCC[n+]2ccc(C(C)(C)C)cc2)cc1`, the Ratio IC50 was found to be 2.7. For the compound `CC(C)(C)c1cc[n+](CCCCCCCC[n+]2ccc(C(C)(C)C)cc2)cc1`, the Ratio IC50 turned out to be 3.2.

Take `CC(C)(C)c1cc[n+](CCCCCC[n+]2ccc(C(C)(C)C)cc2)cc1`: the Ratio IC50 worked out at 19.

For `CC(C)(C)c1cc[n+](CCCC[n+]2ccc(C(C)(C)C)cc2)cc1`, the Ratio IC50 is 1.5.
